## Apparent affinities of Ab-14 variants for a coronavirus HR2 peptide

Reference: Engelhart et al. 2022, doi:10.1038/s41597-022-01779-4. File: FLAb, binding data.

Target peptide (SARS-CoV-2 spike, HR2 region): PDVDLGDISGINAS

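Library AAYL50 holds single substitutions and randomly drawn double and triple substitutions in the CDRs. AlphaSeq pools MATa yeast showing the antibodies with MATalpha yeast showing the peptide. Pairs that bind mate more often; barcode pairs of the diploids are counted by sequencing. A regression on co-assayed BCL2-family reference pairs converts the normalised counts of each replicate to an apparent Kd. The assay was run in three technical replicates.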

Parent: Ab-14, a human scFv built as VH, three GGGGS repeats, VL. Only the CDRs of the light chain vary.
VH: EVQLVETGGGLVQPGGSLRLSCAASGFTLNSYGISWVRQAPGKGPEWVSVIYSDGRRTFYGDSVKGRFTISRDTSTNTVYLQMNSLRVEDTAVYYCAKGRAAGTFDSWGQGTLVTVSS
VL: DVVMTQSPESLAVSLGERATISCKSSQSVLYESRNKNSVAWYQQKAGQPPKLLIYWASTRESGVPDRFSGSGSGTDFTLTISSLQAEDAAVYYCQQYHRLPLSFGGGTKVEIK

Each variant is given by its three light chain CDRs, as the data file delimits them; those of the parent are KSSQSVLYESRNKNSVA, WASTRES, QQYHRLPLS. The Kd shown is the geometric mean over detected replicates; a lower Kd is a better binder. An entry "nd" has no value in the source: the pair was not observed among the diploids in any replicate. This suggests poor binding but is not conclusive. Parent in this assay: reference entry 4.4 nM, copy in this library 48 nM.

Kd	seen in	CDR-L1	CDR-L2	CDR-L3
nd	0/3	KSSQSVLYFSRNKNSAA	WASTRNS	QQYHRLPLS
nd	0/3	KSSQSVLYESRNKNSVA	WAHTFES	QIYHRLPLS
nd	0/3	KSSQSVLYISLQKNSVA	WASTRES	QQYHRLPLS
nd	0/3	KSSQTVLYESRNKNSRA	WASTRES	QQYHRLPWS
2.1 µM	3/3	ESSQSVLLESRNKNSVA	WASTRES	QQCHRLPLS
1.1 nM	3/3	KSSQSVLNESRDKNSVA	HASTRES	QQYHRLPLS
4.3 nM	3/3	KSSQSVLYESRNRNSVA	WASTRES	QQYHRLCLS
nd	0/3	KSSQSVLYESRNKPSVA	WANTRES	QQSHRLPLS
nd	0/3	KSSQSVMYECRNKNSVA	WASTRES	QQYHRLPLC
nd	0/3	KSSQSVLYESRNKNSDA	WASTSES	LQYHRLPLS
100 nM	3/3	KSSQSVLYSSRNKNSVA	WASTRES	QCKHRLPLS
230 nM	3/3	KSGQSVLYESRNKNSVA	WASTRED	GQYHRLPLS
2.8 nM	3/3	KSSQSVLYESRNKISVA	WASTRES	QQYHRLMLS
nd	0/3	KSSQSVYYESRNKNSVA	WASTRMS	QQYHRLPLQ
22 µM	2/3	KSSQSVSYESRNKNMVA	WASTREP	QQYHRLPLS
360 nM	3/3	KSSQSVLYESRVKNSLA	TASTRES	QQYHRLPLS
nd	0/3	KSSQSVLYESPNKNSVT	WASTRES	QQYHRLPLS
11 µM	1/3	KSSWSVLYESRNKNSVA	WASTRES	NFYHRLPLS
nd	0/3	KSKQSVLYESRNKNSVA	WAWTRES	QYYHRLPLS
520 µM	1/3	KSSQSVLYESRNKNSVA	WASTRTS	QQYHRLPLW
21 µM	2/3	KNSQVVLYESRNKNSVA	WASTRES	QNYHRLPLS
2.6 µM	3/3	KSDQSVLYESRNKNSVA	WASTRES	QQYHMLMLS
nd	0/3	KSSQSRLYESRNKNSVA	WASPRES	QQYHRLPLS
nd	0/3	KSPQSVLYESRNKNSCA	WASTRES	QQYHGLPLS
84 nM	3/3	KSSQSVLYEFRNKNSVA	WASTREQ	QQYHRLPLS
26 nM	3/3	KSSQSIAYESRNKNSVA	WASFRES	QQYHRLPLS
58 nM	3/3	KSSQNVLYESRNKNSVA	WASTRES	HQYHRLPTS
88 µM	2/3	KSSHSVLYISRNKNSVA	CASTRES	QQYHRLPLS
400 nM	3/3	KSSQSHLYVSRNKNSVA	WASTRES	QQYHRLPLS
83 nM	3/3	KSSQSVLYESRNKNSVA	WASDRET	QQYHRLPAS
nd	0/3	KSSQSVLYESRNKNSFA	WASKRES	QQYHRLPLS
nd	0/3	KSSQSVLYESRMKNSVA	WMSTRES	IQYHRLPLS
8.8 µM	2/3	KSSQSVLYWSRNKNSYA	WASTRHS	QQYHRLPLS
870 nM	3/3	KSSQIVLYESRNKNSVA	WASTRQS	QQYHRLPIS
110 nM	3/3	KSSQSVLYEPRNKNSVA	WASTRES	QQTHRLWLS
1.4 µM	3/3	KSSQSVLCESRQKNSVA	WASTRHS	QQYHRLPLS
nd	0/3	KSSQSVLYESRNKNSVA	WASTRYS	QQDWRLPLS
nd	0/3	KSSQSVLFESRGKNFVA	WASTRES	QQYHRLPLS
nd	0/3	KSSQSVLYESRNPNSQA	WAMTRES	QQYHRLPLS
36 µM	1/3	KSSQSVLYYSRNKNSVA	VASTREN	QQYHRLPLS
2.6 µM	1/3	KSSQKVLYESRNKNSVA	WASTRES	MQYHRLPYS
480 µM	2/3	KSSSSVLYESRNKNSVA	WASTHES	QQYHRLPLN
nd	0/3	KSSQSVLYESRDKNSVA	WASFRES	QQYHRLPES
81 nM	3/3	KSSQNVLYVSRNKNNVA	WASTRES	QQYHRLPLS
88 nM	3/3	KYSQSVLYESRAKNSVA	WASTRES	GQYHRLPLS
190 nM	3/3	YSSQSVLYESRNSNSVA	WASQRES	QQYHRLPLS
1.2 µM	3/3	KSSSSVLYESRNKNSVA	WRSTRES	QQYHRLPLS
nd	0/3	KSSQSHLFESRNKNSVA	WASTDES	QQYHRLPLS
44 nM	3/3	KSSQSVLYMSRNKNSVA	WASTRES	QQYHRLPIE
nd	0/3	KSSQSVLRESRNKNSVC	WAVTRES	QQYHRLPLS
14 nM	3/3	KSSQSIYYEERNKNSVA	WASTRES	QQYHRLPLS
13 nM	3/3	KSSQSVLYESRHLNSVA	WASTRES	QLYHRLPLS
49 µM	3/3	KSSVSVLYESRNKNSVA	WASTRMS	QQYHRHPLS
79 µM	2/3	KDSQSVLYESRNKNSVA	WASERES	QQYHRLPLP
6.1 µM	1/3	KSSQSVLYESRNKNSPA	WASWAES	QQYHRLPLS
6.0 µM	1/3	KSSQSVLYESRNKNSVA	WASTRES	QCWHRLPLS
nd	0/3	KSSQSVLLESCNKNSVH	WASTRES	QQYHRLPLS
nd	0/3	KSSQSVLYESRNKNSVA	WASTECS	QQYHRLPLY
5.9 nM	3/3	KDSQSVGYESRNKRSVA	WASTRES	QQYHRLPLS
11 nM	3/3	KSSQSVLYEQRNKNSVA	WAHTRES	QQYHRLSLS
49 nM	3/3	KSSQSTLYESRNKNSVA	WASTRES	QQYERLPLS
8.9 µM	2/3	KSSQSVLYESRNKNSVA	VASTRES	QQYFILPLS
nd	0/3	KSSQSVLILSRNKNSVA	WASTRES	QQVHRLPLS
200 nM	1/3	KSSQSRLYKSRNKNSVA	YASTRES	QQYHRLPLS
110 µM	3/3	KSRQSVLYESRNKCSVA	WWSTRES	QQYHRLPLS
3.9 nM	3/3	KCSQSVLYESRNGNSVA	WASTRSS	QQYHRLPLS
nd	0/3	KSSQTVLHESRNKNSVA	WASTRES	YQYHRLPLS

From the list, the first 8 with no signal in any replicate:

CDR-L1	CDR-L2	CDR-L3	Kd	seen in
KSSQSVLYFSRNKNSAA	WASTRNS	QQYHRLPLS	nd	0/3
KSSQSVLYESRNKNSVA	WAHTFES	QIYHRLPLS	nd	0/3
KSSQSVLYISLQKNSVA	WASTRES	QQYHRLPLS	nd	0/3
KSSQTVLYESRNKNSRA	WASTRES	QQYHRLPWS	nd	0/3
KSSQSVLYESRNKPSVA	WANTRES	QQSHRLPLS	nd	0/3
KSSQSVMYECRNKNSVA	WASTRES	QQYHRLPLC	nd	0/3
KSSQSVLYESRNKNSDA	WASTSES	LQYHRLPLS	nd	0/3
KSSQSVYYESRNKNSVA	WASTRMS	QQYHRLPLQ	nd	0/3

As a blank, each scFv also met three strains without target: over library AAYL50, 18% of these pairings were detected, typically at 15 µM and seldom below 970 nM.